Laboratory results reported in PMC6021502, “Cannabigerol Action at Cannabinoid CB1 and CB2 Receptors and at CB1–CB2 Heteroreceptor Complexes” (Frontiers in Pharmacology, 2018).

By UniProt entry, the sequences of proteins in these tests, tags left out.
UniProt P34972, whole entry: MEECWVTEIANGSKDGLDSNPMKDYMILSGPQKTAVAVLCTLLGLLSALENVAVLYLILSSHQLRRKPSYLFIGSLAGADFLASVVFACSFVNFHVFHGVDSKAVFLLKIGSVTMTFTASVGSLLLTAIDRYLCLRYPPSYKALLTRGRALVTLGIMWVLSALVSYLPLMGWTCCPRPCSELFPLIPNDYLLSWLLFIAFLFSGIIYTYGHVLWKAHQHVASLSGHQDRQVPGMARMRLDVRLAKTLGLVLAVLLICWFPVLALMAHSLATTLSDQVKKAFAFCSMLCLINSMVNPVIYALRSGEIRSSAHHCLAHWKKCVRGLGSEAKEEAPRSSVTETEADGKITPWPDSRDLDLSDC

How the values were obtained:
human CB2 receptor [1] = biological target: T1, human CB2 receptor (Homo sapiens, UniProt P34972); assay: [3H]-CP-55940 competition binding, CHO membranes; conditions: radioligand 0.3 nM [3H]-CP-55940, CHO membranes
T1 construct: expressed in transfected cells; membranes

human CB2 receptor [2] = biological target: T1, human CB2 receptor; assay: [3H]-WIN-55,212-2 competition binding, CHO membranes; conditions: radioligand 3 nM [3H]-WIN-55,212-2, CHO membranes

C=C(C)[C@@H]1CCC(C)=C[C@H]1c1c(O)cc(CCCCC)cc1O [CBD, cannabidiol, reference compound]
Ki (human CB2 receptor [1]): 1.71 µM | Ki (human CB2 receptor [2]): 4.02 µM
